Measurements: paper doi:10.1101/2019.12.31.891234

By UniProt entry, the sequences of proteins in these tests, tags left out. Where a name states a change or a piece, a line headed by the entry shows the natural chain unless it says otherwise.
UniProt Q2XVP4: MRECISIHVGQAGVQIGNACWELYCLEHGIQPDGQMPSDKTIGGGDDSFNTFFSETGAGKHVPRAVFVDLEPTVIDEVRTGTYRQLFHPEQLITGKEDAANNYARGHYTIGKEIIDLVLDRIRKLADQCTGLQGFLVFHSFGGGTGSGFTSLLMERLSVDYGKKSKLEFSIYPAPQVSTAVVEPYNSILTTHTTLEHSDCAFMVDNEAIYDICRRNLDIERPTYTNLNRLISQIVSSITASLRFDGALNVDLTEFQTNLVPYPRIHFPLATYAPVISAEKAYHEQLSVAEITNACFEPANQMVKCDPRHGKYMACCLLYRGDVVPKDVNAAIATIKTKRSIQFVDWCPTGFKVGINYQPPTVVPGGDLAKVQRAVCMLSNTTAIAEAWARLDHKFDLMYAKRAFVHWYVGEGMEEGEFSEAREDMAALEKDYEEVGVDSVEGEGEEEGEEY

Target: microtubules in LLC-PK1 cells (pig (endogenous in LLC-PK1)) (UniProt Q2XVP4)
Experiment: quantitative fluorescence microscopy in live cells

“human 2N4R tau tagged with EGFP (from UniProt P10636-8 1-441) (natural protein)” was tested. Which Kd did it give?
The Kd was 1100 nM.
